The source of these data is patent US10947317B2, “NaPi2b-targeted antibody-drug conjugates and methods of use thereof” (Mersana Therapeutics, Inc., priority 2016, dated 2021).

What all share (format): cell-based
Holding throughout (details): 72 hours or 6 days

Data set [1] relates to OVCAR3 (ovarian adenocarcinoma cell line). As to the kind of experiment: Cytotoxicity assay (CellTiter-Glo), OVCAR-3. As for the experimental part:
(§1) OVCAR3 (ovarian adenocarcinoma cell line, not amplified, ATCC, Cat.#HTB-161) was cultured in RPMI medium with 20% FBS. TOV-21G (human ovarian adenocarcinoma cell line, not amplified, ATCC, Cat.#CRL-11730) was cultured in 1:1 mixture of MCDB 105 medium containing a final concentration of 1.5 g/L sodium bicarbonate and Medium 199 containing a final concentration of 2.2 g/L sodium bicarbonate with 15% FBS. IGROV1 (ovarian adenocarcinoma cell line, not amplified) was cultured in RPMI medium with 10% FBS. HCC-4006 (human lung carcinoma cell line, not amplified, ATCC, Cat.#ATCC® CRL-2871™) was cultured in RPMI medium with 10% FBS.
(§2) For the cytotoxicity assay, cells were seeded at a density of 5000 cells per well in 96 well plates and allowed to attach during overnight incubation at 37° C. in the presence of 5% CO2. The media was then replaced with fresh media containing a range of the conjugates Examples 1A, 2C, 3A or AF-HPA (100 nM to 0.1 pM) or Examples 1C, 2C, 3B or AF-HPA (100 nM to 0.1 pM) and the cells were incubated for 72 hours or 6 days at […] in the presence of 5% CO2. Cell survival was measured using CellTiter-Glo® Luminescent Cell Viability Assay (Promega, Madison, Wis.) as described in the kit instructions. Cell viability was normalized to untreated control and expressed as a percentage. The values were plotted and IC50 values calculated with GraphPad Prism software (San Diego, Calif.) using 4 parameter, variable slope, dose response curve fitting algorithm.

In data set [2] the test system is IGROV1 (ovarian adenocarcinoma cell line). Description: Cytotoxicity assay (CellTiter-Glo), IGROV1. As for the experimental part:
as §1, §2
For orientation: Cellular ATP, detected with luciferase, serves as a proxy for viable cell number.

Data set [3] deals with TOV-21G (human ovarian adenocarcinoma cell line). Description: Cytotoxicity assay (CellTiter-Glo), TOV-21G. The protocol: as §1, §2
Data set [4] concerns HCC-4006 (human lung carcinoma cell line). Description: Cytotoxicity assay (CellTiter-Glo), HCC-4006. As for the experimental part: as §1, §2

For orientation: IC50 means the point on the concentration scale where inhibition reaches its midpoint. Higher therefore signals weaker potency in that assay. In the case of “(10H1.11.4B)-(EG2-MI-(10 kDa PHF-BA-(AF-HPA-Ala))) [Example 2C]”, the IC50 came out at 0.014 nM in data set [1] (Table VA); 0.11 nM in data set [1] (Table VB); 10.6 nM in data set [2] (Table VA); 2.73 nM in data set [2] (Table VB); 2.03 nM in data set [3] (Table VA); 41.5 nM in data set [3] (Table VB). For the same substance, the IC50 worked out at 2.96 nM in data set [4] (Table VA) and 3.17 nM in data set [4] (Table VB).
Take “XMT-1535-(EG2-MI-(10 kDa PHF-BA-(AF-HPA-Ala))) [Example 1A]”: the IC50 in data set [1] (Table VA) is 0.002 nM; in data set [2] (Table VA), around 5 nM; in data set [3] (Table VA), 0.04 nM; in data set [4] (Table VA), 0.13 nM.
